The target of the experiment is T1, Glucose-induced degradation protein 4 homolog (Homo sapiens) (UniProt Q8IVV7).
T1 sequence (whole entry): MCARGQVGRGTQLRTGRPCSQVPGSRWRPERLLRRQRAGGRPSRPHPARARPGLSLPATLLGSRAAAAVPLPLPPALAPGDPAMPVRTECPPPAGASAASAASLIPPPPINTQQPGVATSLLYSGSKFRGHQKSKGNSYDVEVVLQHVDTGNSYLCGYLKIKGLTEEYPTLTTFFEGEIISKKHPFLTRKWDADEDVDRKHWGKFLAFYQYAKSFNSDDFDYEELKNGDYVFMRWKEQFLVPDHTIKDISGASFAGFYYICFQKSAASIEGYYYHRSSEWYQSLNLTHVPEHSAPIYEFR

As a reminder, the ΔTm is the change in melting temperature against a reference sample.

For `Clc1ccc(NC2=NCC(CI)S2)cc1` (configuration not stated), the ΔTm was -1.7 °C. Under `ICC1CN=C(Nc2ccccc2)S1` (configuration not stated) stands -0.6 °C.

The values above are taken from ChEMBL document CHEMBL5104179, “Discovery and Structural Characterization of Small Molecule Binders of the Human CTLH E3 Ligase Subunit GID4” (J Med Chem, 2022).
